The entries are a selection whose mix differs from that of the whole data set. Some results for these compounds are left out of this collection, so the calls shown say nothing about other tests. The source made the active and inactive calls. No stated cut-off is given here; in the data, active means fluorescence above about 89; inactive means the rest.

A short description of this experiment: green autofluorescence of compounds with GSH beads – biophysical, 488/530 nm, flow cytometry, artefact control, profiling panel (AID 1776).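 Further: glutathione beads carrying GST-tagged Bcl family fusion proteins plus one bare bead set; values are compound well signal with DMSO vehicle wells as background.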 Conditions: compound fluorescence 488/530 nm, at 10 µM, active compounds read high. On the technique in general: Flow cytometry measures light scatter and fluorescence of single cells or particles in a stream.
In the case of `O=C(NCC1(N2CCCCC2)CCCCC1)c1cc([N+](=O)[O-])ccc1Cl`, the fluorescence (KMESF) is inactive: 16.

With `CC(C)N1C(=O)CC2(CCN(CCOC(=O)C(O)(c3ccccc3)c3ccccc3)CC2)C1=O`, the fluorescence (KMESF) is inactive: 14.

Consider `CN(C)C1CCCC1OC(=O)C(O)(c1ccccc1)c1ccccc1` (centres undefined), for which the fluorescence (KMESF) is inactive: 17.

With `Cc1ccccc1C(=O)NCC1(N2CCCCC2)CCCCC1`, the fluorescence (KMESF) is inactive: 28.

Consider `C=CCN1CCN(CCOC(=O)C(O)(c2ccccc2)c2ccccc2)CC1`, for which the fluorescence (KMESF) was inactive: 21.

Regarding `CCN1CCCC(OC(=O)C2(O)c3ccccc3C=Cc3ccccc32)C1` (centres undefined), the fluorescence (KMESF) was inactive: 9.

For `COc1cccc(C(=O)NCC2(N3CCCCC3)CCCCC2)c1`, the fluorescence (KMESF) was inactive: 14.

In the case of `O=C(OC1CN2CCC1CC2)C(CO)(c1ccccc1)c1ccccc1` (centres undefined), the fluorescence (KMESF) was inactive: 27.

Consider `CN(C)c1cccc(C(=O)NCC2(N(C)C)CCCCC2)c1`, for which the fluorescence (KMESF) was inactive: 19.

(Values after PubChem BioAssay AID1776 (NMMLSC, 2009).)
